Tested on: organophosphate chemical warfare agents
Test: Survival with cyproheptadine added to lower doses of atropine

CN1CCC(=C2c3ccccc3C=Cc3ccccc32)CC1
survival compared with the standard atropine dose: greater survival
